Measured values taken from US20230190933A1, “Immunologically Active Peptide-Biliverdin Conjugate, Preparation Method Therefor and Application Thereof” (priority 2020, published 2023).

Experiments:
[1] = test system: dendritic cells from peripheral blood of non-small cell lung cancer model mice; details: coculture 24 hours; CD80, CD83, CD86
[2] = test system: locally recurrent head and neck cancer; details: cited from earlier work

Row | Substance | promoting effect on the maturation of dendritic cells [1] | complete remission rate ([2]; clinical trials) [%] | disease control rate ([2]; clinical trials) [%] | remission rate ([2]; clinical trials) [%] | biological safety ([2]; in vivo)
1 | biliverdin-KIFGSLAFL conjugate [Example 5] | can promote the maturation of dendritic cells | – | – | – | –
2 | Antibody-Drug Conjugates (ADC) composed of cetuximab and IRDye700DX | – | 16.7 | 86.7 | 50 | good biological safety
